## Antibody variant affinities, Ab-14 light chain, assay 1

Source: Engelhart et al. 2022 (doi:10.1038/s41597-022-01779-4), MIT Lincoln Laboratory and A-Alpha Bio; data file from the FLAb repository.

Binding partner: SARS-CoV-2 spike HR2 peptide, sequence PDVDLGDISGINAS.

The variants keep the heavy chain, the linker and the frameworks of Ab-14 (scFv order VH, a (GGGGS)3 linker, VL).
VH: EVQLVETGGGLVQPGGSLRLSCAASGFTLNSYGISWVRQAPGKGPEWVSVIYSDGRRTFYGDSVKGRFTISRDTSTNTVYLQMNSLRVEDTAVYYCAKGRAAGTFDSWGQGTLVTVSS
VL: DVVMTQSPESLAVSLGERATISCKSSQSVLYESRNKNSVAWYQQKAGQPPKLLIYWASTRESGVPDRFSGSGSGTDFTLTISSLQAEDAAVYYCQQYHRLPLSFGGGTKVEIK

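Phage display of a naive human antibody library on the peptide gave the parent. AAYL50 was designed without a model: most single CDR substitutions and a random sample of double and triple ones. The assay is AlphaSeq: two haploid yeast populations carry antibody and antigen on their surface. The frequency of each diploid, read from paired DNA barcodes, reflects how well the two displayed proteins bind. A regression on co-assayed BCL2-family reference pairs converts the normalised counts of each replicate to an apparent Kd. The assay was run in three technical replicates.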

Each variant is given by its three light chain CDRs, as the data file delimits them; those of the parent are KSSQSVLYESRNKNSVA, WASTRES, QQYHRLPLS.
Values are log10 of the apparent Kd in nM; lower means stronger binding.
A mean of the replicates is given; it leaves out those without a signal.
An entry "ND" has no value in the source: the pair was not observed among the diploids in that replicate. This suggests poor binding but is not conclusive.
As a blank, each scFv also met three strains without target: over library AAYL50, 18% of these pairings were detected, typically at 4.19 and seldom below 2.99. The control count says in how many pairings with the empty strains this scFv gave a signal, with their mean in brackets.
Parent in this assay: reference entry 0.65, copy in this library 1.68.

| CDR-L1 | CDR-L2 | CDR-L3 | replicates, log10 nM | mean log10 Kd (nM) | signal with controls |
|---|---|---|---|---|---|
| KSSQSQLYESRNYNSVA | QASTRES | QQYHRLPLS | -0.20 0.13 -0.11 | -0.06 | 4 of 9 (5.45) |
| KSSGSVLYESRNKNSVA | WASTRES | NQYHRLPLF | ND ND 3.10 | 3.10 | 0 of 9 |
| KSSQSVLYESRNKNSVA | WASTRES | QFYHRLPLS | 1.89 1.89 2.55 | 2.11 | 0 of 9 |
| KSSVSVLYESRNKNSVG | EASTRES | QQYHRLPLS | 1.42 1.50 1.52 | 1.48 | 2 of 9 (3.67) |
| TSSQSVLYESRNKNSVT | WASTRES | QQYHRLPLS | 6.22 ND ND | 6.22 | 4 of 9 (4.91) |
| SSSQSVSYESRNKNSVA | WASTRES | QQYIRLPLS | 1.18 1.50 1.60 | 1.43 | 1 of 9 (4.25) |
| KSSQSVLYESHNKNSVA | WASTRES | TQYHRLPLT | ND ND ND | ND | 1 of 9 (3.72) |
| KSSQSVLYEAMNKNSVA | WASTRES | QQYHRLPLS | ND ND ND | ND | 0 of 9 |
| KSSQSTLYNSRNKNSVA | WAGTRES | QQYHRLPLS | 1.74 1.72 2.00 | 1.82 | 6 of 9 (4.66) |
| KSSQEVLYESRNKNSQA | WASTIES | QQYHRLPLS | ND ND ND | ND | 0 of 9 |
| KSSQSVLYESRNNNSVA | WASTRES | ATYHRLPLS | 2.95 ND 3.86 | 3.40 | 5 of 9 (3.46) |
| KRSQSVLYCSRNKNSVA | WASTRES | QQYHRLPKS | ND ND ND | ND | 0 of 9 |
| KSSQSVLYESRNKNSVA | WASTRES | QPYPFLPLS | ND 3.92 ND | 3.92 | 1 of 9 (4.18) |
| KSSDSVLYESRNKNSVA | WASTRGS | QQYHRLPLS | 2.21 2.99 3.45 | 2.88 | 1 of 9 (3.39) |
| KSSQSVLYESRNFNSVA | WESTRES | QQPHRLPLS | 4.94 ND ND | 4.94 | 1 of 9 (3.83) |
| KSSQSVLYESRNANSVA | WASTRES | QQYHKLSLS | 5.60 ND 5.29 | 5.44 | 3 of 9 (4.04) |
| KSSQSVLYESRLKNSVA | WASTRES | QQYHHQPLS | ND ND 5.78 | 5.78 | 4 of 9 (5.03) |
| KSSQSVLYESRNKNIVA | WASTWTS | QQYHRLPLS | ND ND ND | ND | 1 of 9 (3.42) |
| KSSQSVLYESRNKNSVA | PASTRES | QQHHRLPLS | ND 4.18 ND | 4.18 | 5 of 9 (4.57) |
| KSSHSVLYESRNKNSVA | WASVRES | QQYHRLHLS | 4.74 ND 5.38 | 5.06 | 7 of 9 (4.39) |
| KSSQSVLYESRNKYWVA | WASTRES | QQYLRLPLS | ND ND ND | ND | 0 of 9 |
| KSSQRVLYESRNKNSVA | WASTGES | QQYHRLPLS | 4.09 4.04 5.41 | 4.51 | 5 of 9 (4.42) |
| KSSISVLYESRPKNSVA | WASTRES | QQYHFLPLS | ND ND ND | ND | 0 of 9 |
| KSSQSVLYESRNKMSVA | WASGRES | QQYHRLPTS | ND ND ND | ND | 0 of 9 |
| KSSQSVGYESRNKNSVA | AASTCES | QQYHRLPLS | 0.36 0.64 0.63 | 0.54 | 1 of 9 (3.48) |
| KSSQSVLYESSNKNSVA | WASERES | QQYSRLPLS | 0.03 0.72 0.03 | 0.26 | 4 of 9 (3.83) |
| QMSQSVLYESRNKNSVA | WAQTRES | QQYHRLPLS | 0.28 0.64 0.44 | 0.45 | 1 of 9 (3.18) |
| KSSQSVLYESRNHNSVA | WASTREW | QQYHRLPLS | 2.37 1.62 1.88 | 1.96 | 2 of 9 (4.03) |
| KSSQSVLYESRNKNSVA | WASTRCS | QQYHRLPNS | 3.62 2.94 3.34 | 3.30 | 4 of 9 (4.11) |
| KKSQSVLYESRNKNSVP | WASTRES | NQYHRLPLS | ND ND ND | ND | 0 of 9 |
| KSSQSVLRESRNKNSVA | WASTCES | QQYHRLPLM | 3.54 ND ND | 3.54 | 4 of 9 (4.62) |
| KSSQSVLYQSRNKNSYK | WASTRES | QQYHRLPLS | ND 4.04 2.95 | 3.50 | 0 of 9 |
| KSSQSVDYESRNKNSVA | WASTRES | QQYHRLPCW | 0.90 0.77 0.91 | 0.86 | 2 of 9 (3.60) |
| KSSYAVLYESRNKNSVA | WASTAES | QQYHRLPLS | ND 3.31 ND | 3.31 | 0 of 9 |
| KWSQSVLYESRNKNSVA | WASTRES | QQFHRLPLS | 0.71 1.00 0.89 | 0.86 | 0 of 9 |
| KSSKSVLYESRNKNSVA | WASTRES | QQSHRLPHS | ND ND ND | ND | 1 of 9 (4.82) |
| KSSNSVLYESRNKNSVA | WASTRES | QQYHRLPLS | 2.77 ND ND | 2.77 | 0 of 9 |
| KSSQSVLYHSRCKNMVA | WASTRES | QQYHRLPLS | ND ND ND | ND | 0 of 9 |
| KSSQIVLYESRNKNSVA | WASTRES | QQYHRFPQS | ND ND ND | ND | 0 of 9 |
| KSQQSVLYEWRNKNSVA | WASTRES | QQYHRLPLI | 2.05 1.83 2.00 | 1.96 | 3 of 9 (3.42) |
| KSSQSVLYESRNKNSVA | WASTRCS | QMYHRLPLS | 2.86 2.35 2.46 | 2.56 | 4 of 9 (4.53) |

The closing 5 entries, repeated:

CDR-L1	CDR-L2	CDR-L3	replicates, log10 nM	mean log10 Kd (nM)	signal with controls
KSSNSVLYESRNKNSVA	WASTRES	QQYHRLPLS	2.77 ND ND	2.77	0 of 9
KSSQSVLYHSRCKNMVA	WASTRES	QQYHRLPLS	ND ND ND	ND	0 of 9
KSSQIVLYESRNKNSVA	WASTRES	QQYHRFPQS	ND ND ND	ND	0 of 9
KSQQSVLYEWRNKNSVA	WASTRES	QQYHRLPLI	2.05 1.83 2.00	1.96	3 of 9 (3.42)
KSSQSVLYESRNKNSVA	WASTRCS	QMYHRLPLS	2.86 2.35 2.46	2.56	4 of 9 (4.53)